Experimental data published in ChEMBL document CHEMBL5385906, “Discovery of a Potent, Selective, and Orally Bioavailable Tool Compound for Probing the Role of Lysophosphatidic Acid Type 2 Receptor Antagonists in Fibrotic Disorders” (J Med Chem, 2023).

Tests used:
[1] = in vitro; settings: human, liver microsomes, CLH
[2] = in vitro; settings: C57BL/6J, mouse, liver microsomes
[3] = in vitro; settings: human, Caco-2
[4] = in vitro; settings: human, Caco-2; remark: listed apart in the source
[5] = in vitro; settings: mouse, lungs
[6] = in vitro; settings: human, plasma
[7] = in vitro; settings: mouse, plasma
[8] = in vivo; settings: C57BL/6J, mouse, po, 30 mg/kg
[9] = in vivo; settings: C57BL/6J, mouse, po, 30 mg/kg; remark: listed apart in the source
[10] = in vivo
[11] = in vivo; remark: listed apart in the source
[12] = in vivo; remark: listed apart in the source
[13] = in vivo; settings: C57BL/6J, mouse, po, 30 mg/kg; remark: listed apart in the source
[14] = in vivo; remark: listed apart in the source
[15] = in vivo; remark: listed apart in the source
[16] = in vivo; remark: listed apart in the source
[17] = in vivo; remark: listed apart in the source
[18] = in vivo; settings: C57BL/6J, mouse, po, 30 mg/kg; remark: listed apart in the source
[19] = in vivo; remark: listed apart in the source

Compound	microsomal CLint at 0.75 h, 0.5 µM [1]	microsomal CLint at 0.75 h, 0.5 µM [2]	other results
C[C@@H](CN1CCN(S(=O)(=O)c2ccc(Cl)c(Cl)c2)CC1)Nc1ncnc2c(C(F)(F)F)cccc12	379 µL/min/mg	> 1070 µL/min/mg	
CC[C@@H](CN1CCN(S(=O)(=O)c2ccc(Cl)c(Cl)c2)CC1)Nc1ncnc2c(C)csc12	240 µL/min/mg	933 µL/min/mg	
Cc1csc2c(N[C@@H](C)CN3CCN(S(=O)(=O)c4ccc(Cl)cc4)CC3)ncnc12	258 µL/min/mg	693 µL/min/mg	
Cc1csc2c(N[C@@H](C)CN3CCN(S(=O)(=O)c4cnc(-c5ccccc5)s4)CC3)ncnc12	117 µL/min/mg	343 µL/min/mg	
Cc1csc2c(NC3(CN4CCN(S(=O)(=O)c5ccc(Cl)c(Cl)c5)CC4)CC3)ncnc12	738 µL/min/mg	> 1070 µL/min/mg	
Cc1csc2c(N[C@@H](C)CN3CCN(S(=O)(=O)Cc4ccc(Cl)c(Cl)c4)CC3)ncnc12	> 1070 µL/min/mg	> 1070 µL/min/mg	
CC(=O)Nc1ccc(S(=O)(=O)N2CCN(C[C@H](C)Nc3ncnc4c(C)csc34)CC2)cc1Cl	463 µL/min/mg	998 µL/min/mg	
Cc1noc(-c2ccc(S(=O)(=O)N3CCN(C[C@H](C)Nc4ncnc5c(C(F)(F)F)cccc45)CC3)s2)c1C	459 µL/min/mg	486 µL/min/mg	Papp B→A at 1 h, 10 µM [3]: 0.37 ×10⁻⁶ cm/s; Papp A→B at 1 h, 10 µM [4]: 1.56 ×10⁻⁶ cm/s
COC(=O)Nc1nc(C)c(S(=O)(=O)N2CCN(C[C@H](C)Nc3ncnc4c(-c5ccc(CN6CCCC6)cc5)cccc34)CC2)s1	19 µL/min/mg	143 µL/min/mg	fraction unbound at 5 h, 5 µM [5]: 0.0192; Papp B→A at 1 h, 10 µM [3]: 10.6 ×10⁻⁶ cm/s; fraction unbound at 5 h, 0.5 µM [6]: < 0.01; fraction unbound at 5 h, 0.5 µM [7]: 0.0049; Papp A→B at 1 h, 10 µM [4]: 0.18 ×10⁻⁶ cm/s
Cc1csc2c(N[C@@H](C)CN3CCN(S(=O)(=O)c4cc(Cl)c(Cl)s4)CC3)ncnc12	406 µL/min/mg	913 µL/min/mg	
Cc1csc2c(N[C@@H](C)CN3CCN(S(=O)(=O)c4ccc(F)c(Cl)c4)CC3)ncnc12	469 µL/min/mg	> 1070 µL/min/mg	
Cc1csc2c(NC(C)(C)CN3CCN(S(=O)(=O)c4ccc(Cl)c(Cl)c4)CC3)ncnc12	386 µL/min/mg	> 1070 µL/min/mg	
COC(=O)Nc1nc(C)c(S(=O)(=O)N2CCN(C[C@H](C)Nc3ncnc4c(-c5ccc(F)c(CN(C)C)c5)cccc34)CC2)s1	19 µL/min/mg	21 µL/min/mg	fraction unbound at 5 h, 5 µM [5]: 0.0272; Fa [8]: 77%; half-life [9]: 112 min; Papp B→A at 1 h, 10 µM [3]: 5.13 ×10⁻⁶ cm/s; AUC(0-t) [10]: 149 µg·h/mL; fraction unbound at 5 h, 0.5 µM [7]: 0.0086; AUC(0-t) [11]: 158 µg·h/mL; Papp A→B at 1 h, 10 µM [4]: 1.43 ×10⁻⁶ cm/s; Cmax [12]: 17800 ng/mL; bioavailability [13]: 68%; Cmax [14]: 27300 ng/mL
COC(=O)c1cccc2c(N[C@@H](C)CN3CCN(S(=O)(=O)c4ccc(Cl)c(Cl)c4)CC3)ncnc12	360 µL/min/mg	> 1070 µL/min/mg	
C[C@@H](CN1CCN(S(=O)(=O)c2ccc(Cl)c(Cl)c2)CC1)Nc1ncnc2ccn(C)c12	648 µL/min/mg	858 µL/min/mg	
Cc1csc2c(N[C@@H](C)CN3CCN(S(=O)(=O)c4ccc(Cl)c(C(F)(F)F)c4)CC3)ncnc12	631 µL/min/mg	1000 µL/min/mg	
COC(=O)Nc1nc(C)c(S(=O)(=O)N2CCN(C[C@H](C)Nc3ncnc4c(C(=O)N(C)C)cccc34)CC2)s1	11 µL/min/mg	32 µL/min/mg	fraction unbound at 5 h, 5 µM [5]: 0.306; Papp B→A at 1 h, 10 µM [3]: 12 ×10⁻⁶ cm/s; fraction unbound at 5 h, 0.5 µM [6]: < 0.01; fraction unbound at 5 h, 0.5 µM [7]: 0.0213
Cc1nc(NC(C)CN2CCN(S(=O)(=O)c3ccc(Cl)c(Cl)c3)CC2)c2scc(C)c2n1 (stereo in doubt; 36a)	532 µL/min/mg	> 1070 µL/min/mg	
Cc1noc(-c2ccc(S(=O)(=O)N3CCN(C[C@H](C)Nc4ncnc5c(C)csc45)CC3)s2)c1C	610 µL/min/mg	1040 µL/min/mg	
COC(=O)Nc1nc(C)c(S(=O)(=O)N2CCN(C[C@H](C)Nc3ncnc4c(-c5cccnc5)cccc34)CC2)s1	345 µL/min/mg	256 µL/min/mg	fraction unbound at 5 h, 5 µM [5]: 0.0285; Fa [8]: 56%; AUC(0-t) [15]: 8450 ng·h/mL; Papp B→A at 1 h, 10 µM [3]: 10 ×10⁻⁶ cm/s; Cmax [16]: 6100 ng/mL; fraction unbound at 5 h, 0.5 µM [6]: < 0.01; AUC(0-t) [17]: 43600 ng·h/mL; half-life [18]: 66.6 min; Cmax [19]: 35600 ng/mL; fraction unbound at 5 h, 0.5 µM [7]: 0.0025; Papp A→B at 1 h, 10 µM [4]: 1.31 ×10⁻⁶ cm/s; bioavailability [13]: 40%
Cc1csc2c(N3CCC[C@H]3CN3CCN(S(=O)(=O)c4ccc(Cl)c(Cl)c4)CC3)ncnc12	801 µL/min/mg	> 1070 µL/min/mg	
Cc1csc2c(N[C@@H](C)C(=O)N3CCN(S(=O)(=O)c4ccc(Cl)c(Cl)c4)CC3)ncnc12	260 µL/min/mg	993 µL/min/mg	
CC(=O)Nc1nc(C)c(S(=O)(=O)N2CCN(C[C@H](C)Nc3ncnc4c(C)csc34)CC2)s1	117 µL/min/mg	146 µL/min/mg	
CC(=O)Nc1ncc(S(=O)(=O)N2CCN(C[C@H](C)Nc3ncnc4c(C)csc34)CC2)s1	22 µL/min/mg	81 µL/min/mg	
COC(=O)Nc1nc(C)c(S(=O)(=O)N2CCN(C[C@H](C)Nc3ncnc4c(C(F)(F)F)cccc34)CC2)s1	97 µL/min/mg	250 µL/min/mg	Papp B→A at 1 h, 10 µM [3]: 9.43 ×10⁻⁶ cm/s; Papp A→B at 1 h, 10 µM [4]: 7.37 ×10⁻⁶ cm/s
